Values joined by “and” are separate entries in the source; they are usually repeats but may differ in a detail not shown here. Equal values may be shown once. The entries are a selection whose mix differs from that of the whole data set. Records with an inconclusive call do not appear. Active and inactive are the calls of the source. Calls come from the whole dose curve.
test: cAMP Responsive Elements (CRE) small molecule agonists, cell-based qHTS assay (AID 1963590); conditions: CRE-bla HEK293T, beta-lactamase FRET ratio, 3 h; at 42.5 µM (top of the series)
Source text: U.S. Tox21 Program National Center for Advancing Translational Sciences [NCATS] Division of Preclinical Innovation [DPI] U.S. Environmental Protection Agency [EPA] National Institutes of Environmental Health Sciences [NIEHS] National Toxicology Program [NTP] U.S. Food and Drug Administration [FDA] Tox21 Assay Overview: CREB (cyclic-AMP Responsive Element Binding Protein) is a cellular transcription factor. It binds to certain DNA sequences called cAMP Responsive Elements (CRE) and regulates the transcription of the genes. […] This cell line can be used to find agonists/antagonists of the cyclic AMP signaling pathway. The activation of the report gene under culture conditions can be detected by fluorescence intensity. This cell line has been used to screen the Tox21 10K compound library to identify agonists that induce oxidative stress.
Tox21 Assay Protocol Summary: CRE-bla Hek 293T cells were suspended in assay medium (DMEM containing 10% dialyzed FBS, 0.1 mM NEAA, 1 mM sodium pyruvate and 25 mM HEPES) and dispensed at 2,000 cells/5 uL /well into 1536-well black wall/clear bottom plates using a Multidrop Combi (ThermoFisher Scientific, Waltham, MA) dispenser. After the assay plates were incubated at 37 C/5% CO2 for 18 hrs, 23 nL of compounds dissolved in DMSO, positive controls or DMSO only was transferred to the assay plate by a pintool workstation (Kalypsys, San Diego, CA). After the plates were incubated at 37 C/5% CO2 for 3 hrs, 1 uL of LiveBLAzer B/G FRET substrate (Invitrogen, Carlsbad, CA) was added to each well using Bioraptr Flying Reagent Dispenser (FRD, Aurora Discovery, San Diego, CA). The plates were incubated at room temperature for 2 h.
% is set by controls: 0 for no effect and ±100 for the full control effect.

Row | Structure (SMILES) | activation
1 | C/C1=C2N=C(/C=C3N=C(/C(C)=C4\[N-][C@@](C)([C@@H]5N=C1[C@](C)(CCC(=O)NC[C@@H](C)OP(=O)([O-])O[C@H]1[C@@H](O)[C@@H](n6cnc7cc(C)c(C)cc76)O[C@@H]1CO)[C@H]5CC(N)=O)[C@@](C)(CC(N)=O)[C@@H]4CCC(N)=O)[C@@](C)(CC(N)=O)[C@@H]\3CCC(N)=O)C(C)(C)[C@@H]/2CCC(N)=O.[C-]#N.[Co+3] | inactive: 0.508%
2 | OCCSCCO | inactive: 0.379%
3 | CCOP(=O)(CC)Oc1ccc([N+](=O)[O-])cc1 (stereo not given) | inactive: 0.436%

same assay, conditions: CRE-bla HEK293T, beta-lactamase FRET ratio, 3 h; at 92.4 µM (top of the series)

Row | Structure (SMILES) | activation
4 | N#CBr | inactive: -0.619%
5 | Cc1ccc([N+](=O)[O-])cc1[N+](=O)[O-] | inactive: 1.09% and inactive: -1.98%
6 | O=[N+]([O-])c1cccc([N+](=O)[O-])c1 | inactive: -1.62%
7 | CC(C)OP(C)(=O)OC(C)C | inactive: -0.805% and inactive: 0.0652%
8 | Cc1c([N+](=O)[O-])cccc1[N+](=O)[O-] | inactive: 3.9% and inactive: 0.14%
9 | OCCSCCO | inactive: 3.49%
10 | COP(C)(=O)OC | inactive: -0.543% and inactive: 0.642%
11 | COc1ccc([N+](=O)[O-])cc1[N+](=O)[O-] | inactive: 0.119%
12 | CCOP(=O)(CC)OCC | inactive: -1.57%
13 | CN(C)CCCl | inactive: -0.301%
14 | N=C(N)N[N+](=O)[O-] | inactive: -0.76%
15 | [NH4+].[O-][Cl+3]([O-])([O-])[O-] | inactive: -0.544% and inactive: -0.111%
16 | CC(C)N(CCO)C(C)C | inactive: 1.26%
17 | O=[N+]([O-])OCC(CO[N+](=O)[O-])(CO[N+](=O)[O-])CO[N+](=O)[O-] | inactive: 0.126%
18 | CP(=O)(O)OCCC[Si](O)(O)O | inactive: 0.338%
19 | O=[N+]([O-])[O-].[NH4+] | inactive: -0.0665% and inactive: 0.319%
20 | CCN(CC)CCCl | inactive: 0.16%

— PubChem BioAssay (Tox21)
